# What was measured:
# Sequences of proteins named here, by UniProt entry; tags and fusion partners are left off. A change or cut given only in a name is not applied to a line headed by its entry.
# UniProt P04637: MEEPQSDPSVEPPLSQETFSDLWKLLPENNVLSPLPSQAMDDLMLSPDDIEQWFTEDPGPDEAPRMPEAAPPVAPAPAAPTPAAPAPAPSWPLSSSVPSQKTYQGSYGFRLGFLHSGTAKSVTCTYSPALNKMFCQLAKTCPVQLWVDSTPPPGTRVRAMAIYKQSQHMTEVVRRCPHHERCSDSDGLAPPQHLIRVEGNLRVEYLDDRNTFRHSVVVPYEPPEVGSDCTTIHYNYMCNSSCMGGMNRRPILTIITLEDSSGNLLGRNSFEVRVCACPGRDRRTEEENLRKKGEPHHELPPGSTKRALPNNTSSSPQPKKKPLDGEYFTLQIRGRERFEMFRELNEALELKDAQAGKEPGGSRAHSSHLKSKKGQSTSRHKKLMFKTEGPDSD
# [1] = biological target: p53 Y220C (Homo sapiens, UniProt P04637, Y220C); test: Luciferase Reporter Assay (Luc), p53 response element, NClH1299 cells with inducible p53 Y220C; type: cell-based; conditions: 6 hour
# Experimental: Luciferase Reporter Assay Protocol
# Luciferase reporter (Luc) driven by p53 response element (LTV-p53-Luc (SKU #: LTLR007); G&P Biosciences) and inducible p53 Y220C construct (Tet-One inducible expression system; Takara) were stably expressed in NClH1299 cells by lentiviral transduction. The cells were then used for p53 reporter assay. 5,000 cells were seeded in each well of 384 plate and cultured in 0.5 ug/mL doxycycline (D3072; Sigma) containing medium for 24 hours before compound treatment. After 6 hour of compound treatment, equal volume of One-Glo reagent (E6110; Promega) was added to each well and the plate was incubated for 5 minutes with shaking at room temperature. The luciferase activity was immediately measured with PheraStar microplate reader. Luciferase activity was stimulated by 10 uM of a tool compound as positive control and AC50 was calculated.
# [2] = biological target: T1, p53 Y220C mutant protein (amino acid residues 94-293) (Homo sapiens, UniProt P04637, Y220C); test: Surface Plasmon Resonance (SPR) assay, Kd_kinetic; type: binding; conditions: read-out: SPR P53 Y220C KD kinetic
# T1 construct: p53 Y220C mutant protein (amino acid residues 94-293)
# Experimental: Surface Plasmon Resonance (SPR) Assay Protocol
# SPR experiments were performed on a Biacore 8K instrument. […] The running buffer contained 50 mM Tris, pH 7.5, 100 mM NaCl, 1 mM DTT, 0.01% Brij35, 0.05% Tween-20 and 1% DMSO. The assay temperature was maintained at 16 or 20 °C and data were fit into the 1:1 binding model using the Biacore Insight Evaluation software.
SMILES,AC50 [1],Kd [2]
"CNC(=O)c1ccc(NCC#Cc2nc3c(N[C@@H]4C[C@H]5COC[C@H](N5)[C@@H]4F)cccn3c2SC(F)(F)F)c(OC)c1 (relative stereo) [Example 251, rel-4-{[3-(8-{[(1R,5R,6S,7S)-6-fluoro-3-oxa-9-azabicyclo [3.3.1]nonan-7-yl]amino}-3-[(trifluoromethyl)sulfanyl]imidazo[1,2-a]pyridin-2-yl)prop-2-yn-1-yl]amino}-3-methoxy-N-methylbenzamide]",1500 to 3000 nM,10 to 100 nM
CNC(=O)c1ccc(NCC#Cc2nc3c(N[C@@H]4C[C@@H]5COC[C@@H](N5)[C@@H]4F)cccn3c2SC(F)(F)F)c(OC)c1 (relative stereo) [Example 329],< 750 nM,–
CNC(=O)c1ccc(NCC#Cc2nc3c(N[C@H]4C[C@@H]5COC[C@@H](N5)[C@H]4F)cccn3c2SC(F)(F)F)c(OC)c1 [Example 279],> 3000 nM,10 to 100 nM
CNC(=O)c1ccc(NCC#Cc2nc3c(N[C@H]4C[C@H]5COC[C@H](N5)[C@H]4F)cccn3c2SC(F)(F)F)c(OC)c1 [Example 281],1500 to 3000 nM,–
